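The compound was tested at five concentrations on cells cultured in 96-well plates, with a 48-hour exposure period. At the GI50, growth is halved. TGI marks complete inhibition of growth.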
How the values were obtained:
Assay in all cases: NCI anticancer screen, dose series, 48 h
COLO 205 colon = system: COLO 205 colon
IGROV1 ovarian = system: IGROV1 ovarian
NCI/ADR-RES ovarian = system: NCI/ADR-RES ovarian
MOLT-4 leukemia = system: MOLT-4 leukemia
SK-MEL-28 melanoma = system: SK-MEL-28 melanoma
MCF7 breast = system: MCF7 breast
SK-MEL-5 melanoma = system: SK-MEL-5 melanoma
SR leukemia = system: SR leukemia
MDA-MB-435 = system: MDA-MB-435
U251 CNS = system: U251 CNS
BT-549 breast = system: BT-549 breast
A498 renal = system: A498 renal
HCT-116 colon = system: HCT-116 colon
A549 NSCLC = system: A549 NSCLC
M14 melanoma = system: M14 melanoma
EKVX NSCLC = system: EKVX NSCLC
MDA-MB-231 breast = system: MDA-MB-231 breast
OVCAR-8 ovarian = system: OVCAR-8 ovarian
OVCAR-3 ovarian = system: OVCAR-3 ovarian
SNB-19 CNS = system: SNB-19 CNS
MDA-N = system: MDA-N
HOP-92 NSCLC = system: HOP-92 NSCLC
SN12C renal = system: SN12C renal
SW-620 colon = system: SW-620 colon
PC-3 prostate = system: PC-3 prostate
NCI-H522 lung = system: NCI-H522 lung
HT29 colon = system: HT29 colon
CCRF-CEM leukemia = system: CCRF-CEM leukemia
K-562 leukemia = system: K-562 leukemia
SK-OV-3 ovarian = system: SK-OV-3 ovarian
786-0 renal = system: 786-0 renal
HCC-2998 colon = system: HCC-2998 colon
UACC-257 melanoma = system: UACC-257 melanoma
OVCAR-5 ovarian = system: OVCAR-5 ovarian
NCI-H460 lung = system: NCI-H460 lung
HL-60(TB) leukemia = system: HL-60(TB) leukemia
UO-31 renal = system: UO-31 renal
OVCAR-4 ovarian = system: OVCAR-4 ovarian
LOX IMVI melanoma = system: LOX IMVI melanoma
NCI-H322M lung = system: NCI-H322M lung
SF-539 CNS = system: SF-539 CNS
SNB-75 CNS = system: SNB-75 CNS
SK-MEL-2 melanoma = system: SK-MEL-2 melanoma
HCT-15 colon = system: HCT-15 colon
NCI-H23 lung = system: NCI-H23 lung
NCI-H226 lung = system: NCI-H226 lung
KM12 colon = system: KM12 colon
HOP-62 NSCLC = system: HOP-62 NSCLC
ACHN renal = system: ACHN renal
DU-145 prostate = system: DU-145 prostate
UACC-62 melanoma = system: UACC-62 melanoma
RPMI-8226 leukemia = system: RPMI-8226 leukemia
SF-295 CNS = system: SF-295 CNS
CAKI-1 renal = system: CAKI-1 renal
MALME-3M melanoma = system: MALME-3M melanoma

## BrC1C2(SCCS2)[C@@H]2C[C@@H](c3ccccc32)C12SCCS2 (stereo not given in full)
COLO 205 colon
  GI50: > 100 µM
  TGI: > 100 µM
IGROV1 ovarian
  GI50: > 100 µM
  TGI: > 100 µM
NCI/ADR-RES ovarian
  GI50: > 100 µM
  TGI: > 100 µM
MOLT-4 leukemia
  GI50: > 100 µM
  TGI: > 100 µM
SK-MEL-28 melanoma
  GI50: > 100 µM
  TGI: > 100 µM
MCF7 breast
  GI50: > 100 µM
  TGI: > 100 µM
SK-MEL-5 melanoma
  GI50: 63.5 µM
  TGI: > 100 µM
SR leukemia
  GI50: > 100 µM
  TGI: > 100 µM
MDA-MB-435
  GI50: 93.2 µM
  TGI: > 100 µM
U251 CNS
  GI50: > 100 µM
  TGI: > 100 µM
BT-549 breast
  GI50: > 100 µM
  TGI: > 100 µM
A498 renal
  GI50: > 100 µM
  TGI: > 100 µM
HCT-116 colon
  GI50: 71.2 µM
  TGI: > 100 µM
A549 NSCLC
  GI50: > 100 µM
  TGI: > 100 µM
M14 melanoma
  GI50: > 100 µM
  TGI: > 100 µM
EKVX NSCLC
  GI50: > 100 µM
  TGI: > 100 µM
MDA-MB-231 breast
  GI50: > 100 µM
  TGI: > 100 µM
OVCAR-8 ovarian
  GI50: > 100 µM
  TGI: > 100 µM
OVCAR-3 ovarian
  GI50: > 100 µM
  TGI: > 100 µM
SNB-19 CNS
  GI50: > 100 µM
  TGI: > 100 µM
MDA-N
  GI50: 81.5 µM
  TGI: > 100 µM
HOP-92 NSCLC
  GI50: > 100 µM
  TGI: > 100 µM
SN12C renal
  GI50: > 100 µM
  TGI: > 100 µM
SW-620 colon
  GI50: > 100 µM
  TGI: > 100 µM
PC-3 prostate
  GI50: > 100 µM
  TGI: > 100 µM
NCI-H522 lung
  GI50: > 100 µM
  TGI: > 100 µM
HT29 colon
  GI50: > 100 µM
  TGI: > 100 µM
CCRF-CEM leukemia
  GI50: > 100 µM
  TGI: > 100 µM
K-562 leukemia
  GI50: 90.4 µM
  TGI: > 100 µM
SK-OV-3 ovarian
  GI50: > 100 µM
  TGI: > 100 µM
786-0 renal
  GI50: > 100 µM
  TGI: > 100 µM
HCC-2998 colon
  GI50: > 100 µM
  TGI: > 100 µM
UACC-257 melanoma
  GI50: > 100 µM
  TGI: > 100 µM
OVCAR-5 ovarian
  GI50: > 100 µM
  TGI: > 100 µM
NCI-H460 lung
  GI50: > 100 µM
  TGI: > 100 µM
HL-60(TB) leukemia
  GI50: 40.4 µM
  TGI: > 100 µM
UO-31 renal
  GI50: > 100 µM
  TGI: > 100 µM
OVCAR-4 ovarian
  GI50: > 100 µM
  TGI: > 100 µM
LOX IMVI melanoma
  GI50: > 100 µM
  TGI: > 100 µM
NCI-H322M lung
  GI50: > 100 µM
  TGI: > 100 µM
SF-539 CNS
  GI50: > 100 µM
  TGI: > 100 µM
SNB-75 CNS
  GI50: 18.7 µM
  TGI: > 100 µM
SK-MEL-2 melanoma
  GI50: > 100 µM
  TGI: > 100 µM
HCT-15 colon
  GI50: > 100 µM
  TGI: > 100 µM
NCI-H23 lung
  GI50: > 100 µM
  TGI: > 100 µM
NCI-H226 lung
  GI50: > 100 µM
  TGI: > 100 µM
KM12 colon
  GI50: > 100 µM
  TGI: > 100 µM
HOP-62 NSCLC
  GI50: > 100 µM
  TGI: > 100 µM
ACHN renal
  GI50: > 100 µM
  TGI: > 100 µM
DU-145 prostate
  GI50: > 100 µM
  TGI: > 100 µM
UACC-62 melanoma
  GI50: > 100 µM
  TGI: > 100 µM
RPMI-8226 leukemia
  GI50: > 100 µM
  TGI: > 100 µM
SF-295 CNS
  GI50: > 100 µM
  TGI: > 100 µM
CAKI-1 renal
  GI50: > 100 µM
  TGI: > 100 µM
MALME-3M melanoma
  GI50: > 100 µM
  TGI: > 100 µM
